ChEMBL document CHEMBL5579859, “Discovery of novel indazole derivatives as second-generation TRK inhibitors” (Eur J Med Chem, 2024)

Sequences of proteins named here, by UniProt entry; tags and fusion partners are left off. A change or cut given only in a name is not applied to a line headed by its entry.
UniProt P16234: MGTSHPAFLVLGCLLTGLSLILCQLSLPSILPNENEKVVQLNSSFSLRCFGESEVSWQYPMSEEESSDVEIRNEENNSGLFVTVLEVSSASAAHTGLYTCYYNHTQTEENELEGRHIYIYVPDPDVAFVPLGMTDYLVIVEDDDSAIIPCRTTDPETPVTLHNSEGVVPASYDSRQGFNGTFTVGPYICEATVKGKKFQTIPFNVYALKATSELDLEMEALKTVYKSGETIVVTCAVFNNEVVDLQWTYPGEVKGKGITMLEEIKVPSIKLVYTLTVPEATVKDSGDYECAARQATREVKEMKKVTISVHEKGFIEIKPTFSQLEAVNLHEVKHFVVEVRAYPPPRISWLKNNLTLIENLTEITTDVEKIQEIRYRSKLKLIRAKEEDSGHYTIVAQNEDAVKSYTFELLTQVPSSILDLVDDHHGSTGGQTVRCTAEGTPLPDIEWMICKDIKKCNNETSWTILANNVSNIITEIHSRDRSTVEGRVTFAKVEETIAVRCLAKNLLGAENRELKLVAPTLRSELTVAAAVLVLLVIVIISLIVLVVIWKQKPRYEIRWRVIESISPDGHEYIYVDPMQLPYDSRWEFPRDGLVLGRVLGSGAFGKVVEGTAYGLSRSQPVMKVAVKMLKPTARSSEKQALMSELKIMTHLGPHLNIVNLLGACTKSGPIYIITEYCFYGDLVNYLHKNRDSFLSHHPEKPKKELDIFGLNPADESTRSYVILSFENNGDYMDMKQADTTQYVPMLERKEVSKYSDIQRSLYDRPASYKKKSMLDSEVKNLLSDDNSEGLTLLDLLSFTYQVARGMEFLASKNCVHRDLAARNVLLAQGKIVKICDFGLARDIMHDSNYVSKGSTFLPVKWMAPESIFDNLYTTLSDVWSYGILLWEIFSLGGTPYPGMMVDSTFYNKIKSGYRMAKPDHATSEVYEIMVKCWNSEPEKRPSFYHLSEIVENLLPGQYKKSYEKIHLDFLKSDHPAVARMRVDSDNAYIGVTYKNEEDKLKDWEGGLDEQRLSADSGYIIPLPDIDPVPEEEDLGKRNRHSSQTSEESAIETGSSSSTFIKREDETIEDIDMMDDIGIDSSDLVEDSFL
UniProt O96017, whole entry: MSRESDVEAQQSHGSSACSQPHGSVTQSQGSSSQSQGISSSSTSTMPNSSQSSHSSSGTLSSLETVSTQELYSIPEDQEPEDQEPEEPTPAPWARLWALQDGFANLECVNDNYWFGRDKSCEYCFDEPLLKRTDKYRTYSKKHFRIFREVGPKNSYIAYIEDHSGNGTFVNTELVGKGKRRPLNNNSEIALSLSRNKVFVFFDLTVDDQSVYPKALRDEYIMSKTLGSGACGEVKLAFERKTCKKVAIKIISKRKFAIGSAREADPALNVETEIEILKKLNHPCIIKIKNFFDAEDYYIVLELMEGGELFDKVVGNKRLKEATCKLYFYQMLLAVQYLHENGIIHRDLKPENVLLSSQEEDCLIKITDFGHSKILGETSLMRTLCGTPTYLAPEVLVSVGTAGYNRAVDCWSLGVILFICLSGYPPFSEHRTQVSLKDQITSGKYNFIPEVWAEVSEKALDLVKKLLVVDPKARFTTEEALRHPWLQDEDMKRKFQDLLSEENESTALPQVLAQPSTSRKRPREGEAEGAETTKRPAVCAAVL
UniProt P31749: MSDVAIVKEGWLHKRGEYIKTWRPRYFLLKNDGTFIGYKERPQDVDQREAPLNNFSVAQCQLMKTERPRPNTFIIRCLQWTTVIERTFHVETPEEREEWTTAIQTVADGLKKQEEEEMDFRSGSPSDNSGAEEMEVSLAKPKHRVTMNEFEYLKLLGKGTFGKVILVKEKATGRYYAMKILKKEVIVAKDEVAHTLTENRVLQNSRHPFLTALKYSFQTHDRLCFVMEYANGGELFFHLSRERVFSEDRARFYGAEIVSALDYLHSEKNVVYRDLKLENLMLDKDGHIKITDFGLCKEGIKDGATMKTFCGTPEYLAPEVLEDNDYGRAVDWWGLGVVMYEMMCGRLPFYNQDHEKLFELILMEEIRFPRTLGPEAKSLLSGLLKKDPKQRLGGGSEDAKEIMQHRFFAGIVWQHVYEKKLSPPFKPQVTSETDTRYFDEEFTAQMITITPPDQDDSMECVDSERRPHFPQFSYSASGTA
UniProt Q13464: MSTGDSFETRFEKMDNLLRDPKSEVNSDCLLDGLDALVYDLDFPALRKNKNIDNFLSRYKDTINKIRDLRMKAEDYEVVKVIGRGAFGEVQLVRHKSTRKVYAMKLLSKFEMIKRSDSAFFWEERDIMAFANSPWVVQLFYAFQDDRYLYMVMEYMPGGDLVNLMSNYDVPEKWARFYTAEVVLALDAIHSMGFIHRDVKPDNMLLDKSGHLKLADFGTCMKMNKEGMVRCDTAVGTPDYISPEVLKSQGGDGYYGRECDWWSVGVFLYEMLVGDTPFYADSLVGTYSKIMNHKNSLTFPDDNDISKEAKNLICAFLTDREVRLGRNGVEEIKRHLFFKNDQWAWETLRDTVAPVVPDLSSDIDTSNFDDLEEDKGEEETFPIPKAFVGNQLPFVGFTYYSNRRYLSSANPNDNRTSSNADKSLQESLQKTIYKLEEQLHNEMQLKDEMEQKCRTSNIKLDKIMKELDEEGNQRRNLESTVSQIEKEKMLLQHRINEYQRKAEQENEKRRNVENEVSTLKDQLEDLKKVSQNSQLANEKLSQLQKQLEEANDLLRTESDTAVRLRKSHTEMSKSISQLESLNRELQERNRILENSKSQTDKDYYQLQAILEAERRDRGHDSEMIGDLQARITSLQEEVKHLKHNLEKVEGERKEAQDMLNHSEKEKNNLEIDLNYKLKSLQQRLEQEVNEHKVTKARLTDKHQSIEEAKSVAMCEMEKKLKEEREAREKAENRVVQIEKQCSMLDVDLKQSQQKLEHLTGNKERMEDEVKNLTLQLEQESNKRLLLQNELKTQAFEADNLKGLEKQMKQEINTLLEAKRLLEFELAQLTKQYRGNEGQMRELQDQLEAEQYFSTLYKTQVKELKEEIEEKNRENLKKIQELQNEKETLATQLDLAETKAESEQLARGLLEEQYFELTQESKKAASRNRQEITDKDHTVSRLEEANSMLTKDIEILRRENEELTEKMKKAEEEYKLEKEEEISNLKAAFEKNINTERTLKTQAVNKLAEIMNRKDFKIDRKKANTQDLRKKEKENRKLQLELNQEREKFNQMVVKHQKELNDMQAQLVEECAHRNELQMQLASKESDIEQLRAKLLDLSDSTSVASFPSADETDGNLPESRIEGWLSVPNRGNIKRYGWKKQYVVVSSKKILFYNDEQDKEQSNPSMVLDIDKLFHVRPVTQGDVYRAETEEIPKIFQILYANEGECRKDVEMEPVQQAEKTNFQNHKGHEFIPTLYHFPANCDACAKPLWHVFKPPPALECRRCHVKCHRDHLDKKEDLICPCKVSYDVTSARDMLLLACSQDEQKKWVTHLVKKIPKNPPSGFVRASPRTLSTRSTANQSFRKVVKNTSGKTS
UniProt O96013: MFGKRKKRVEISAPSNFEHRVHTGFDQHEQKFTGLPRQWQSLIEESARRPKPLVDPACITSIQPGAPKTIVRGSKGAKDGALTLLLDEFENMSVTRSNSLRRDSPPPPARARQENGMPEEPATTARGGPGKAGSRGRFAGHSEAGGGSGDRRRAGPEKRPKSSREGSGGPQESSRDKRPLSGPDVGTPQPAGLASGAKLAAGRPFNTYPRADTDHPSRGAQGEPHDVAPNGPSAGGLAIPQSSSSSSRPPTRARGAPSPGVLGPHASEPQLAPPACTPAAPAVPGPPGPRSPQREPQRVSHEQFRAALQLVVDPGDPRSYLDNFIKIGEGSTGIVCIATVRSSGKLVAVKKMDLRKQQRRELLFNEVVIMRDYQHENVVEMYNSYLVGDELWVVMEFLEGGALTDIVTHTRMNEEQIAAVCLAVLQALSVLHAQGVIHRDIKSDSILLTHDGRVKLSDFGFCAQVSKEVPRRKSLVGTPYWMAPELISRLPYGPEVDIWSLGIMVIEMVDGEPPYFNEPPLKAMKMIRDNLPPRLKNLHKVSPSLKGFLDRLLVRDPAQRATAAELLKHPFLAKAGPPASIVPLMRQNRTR
UniProt P06241, whole entry, looked up: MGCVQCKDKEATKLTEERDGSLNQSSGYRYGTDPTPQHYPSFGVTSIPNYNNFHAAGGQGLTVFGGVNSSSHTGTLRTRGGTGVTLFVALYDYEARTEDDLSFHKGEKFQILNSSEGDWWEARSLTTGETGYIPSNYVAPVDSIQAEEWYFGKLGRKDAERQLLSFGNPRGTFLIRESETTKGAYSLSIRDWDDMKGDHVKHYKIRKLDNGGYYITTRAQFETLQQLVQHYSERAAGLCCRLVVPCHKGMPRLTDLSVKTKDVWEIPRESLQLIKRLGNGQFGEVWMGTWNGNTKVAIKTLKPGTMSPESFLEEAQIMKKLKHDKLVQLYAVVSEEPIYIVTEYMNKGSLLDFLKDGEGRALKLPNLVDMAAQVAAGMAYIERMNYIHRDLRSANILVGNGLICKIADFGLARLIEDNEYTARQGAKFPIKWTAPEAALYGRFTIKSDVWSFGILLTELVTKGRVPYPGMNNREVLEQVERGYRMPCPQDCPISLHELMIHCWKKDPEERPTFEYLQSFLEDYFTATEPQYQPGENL
UniProt O14965: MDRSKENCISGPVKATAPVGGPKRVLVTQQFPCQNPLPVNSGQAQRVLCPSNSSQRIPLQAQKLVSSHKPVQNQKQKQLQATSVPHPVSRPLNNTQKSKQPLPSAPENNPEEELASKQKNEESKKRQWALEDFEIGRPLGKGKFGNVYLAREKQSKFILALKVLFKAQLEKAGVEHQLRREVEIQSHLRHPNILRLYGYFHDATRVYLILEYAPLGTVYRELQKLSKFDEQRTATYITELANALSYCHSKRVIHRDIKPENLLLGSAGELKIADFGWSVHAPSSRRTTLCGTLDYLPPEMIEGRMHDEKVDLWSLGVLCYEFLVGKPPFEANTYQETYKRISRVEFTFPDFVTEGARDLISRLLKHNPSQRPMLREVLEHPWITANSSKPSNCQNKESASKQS
UniProt Q9UKE5: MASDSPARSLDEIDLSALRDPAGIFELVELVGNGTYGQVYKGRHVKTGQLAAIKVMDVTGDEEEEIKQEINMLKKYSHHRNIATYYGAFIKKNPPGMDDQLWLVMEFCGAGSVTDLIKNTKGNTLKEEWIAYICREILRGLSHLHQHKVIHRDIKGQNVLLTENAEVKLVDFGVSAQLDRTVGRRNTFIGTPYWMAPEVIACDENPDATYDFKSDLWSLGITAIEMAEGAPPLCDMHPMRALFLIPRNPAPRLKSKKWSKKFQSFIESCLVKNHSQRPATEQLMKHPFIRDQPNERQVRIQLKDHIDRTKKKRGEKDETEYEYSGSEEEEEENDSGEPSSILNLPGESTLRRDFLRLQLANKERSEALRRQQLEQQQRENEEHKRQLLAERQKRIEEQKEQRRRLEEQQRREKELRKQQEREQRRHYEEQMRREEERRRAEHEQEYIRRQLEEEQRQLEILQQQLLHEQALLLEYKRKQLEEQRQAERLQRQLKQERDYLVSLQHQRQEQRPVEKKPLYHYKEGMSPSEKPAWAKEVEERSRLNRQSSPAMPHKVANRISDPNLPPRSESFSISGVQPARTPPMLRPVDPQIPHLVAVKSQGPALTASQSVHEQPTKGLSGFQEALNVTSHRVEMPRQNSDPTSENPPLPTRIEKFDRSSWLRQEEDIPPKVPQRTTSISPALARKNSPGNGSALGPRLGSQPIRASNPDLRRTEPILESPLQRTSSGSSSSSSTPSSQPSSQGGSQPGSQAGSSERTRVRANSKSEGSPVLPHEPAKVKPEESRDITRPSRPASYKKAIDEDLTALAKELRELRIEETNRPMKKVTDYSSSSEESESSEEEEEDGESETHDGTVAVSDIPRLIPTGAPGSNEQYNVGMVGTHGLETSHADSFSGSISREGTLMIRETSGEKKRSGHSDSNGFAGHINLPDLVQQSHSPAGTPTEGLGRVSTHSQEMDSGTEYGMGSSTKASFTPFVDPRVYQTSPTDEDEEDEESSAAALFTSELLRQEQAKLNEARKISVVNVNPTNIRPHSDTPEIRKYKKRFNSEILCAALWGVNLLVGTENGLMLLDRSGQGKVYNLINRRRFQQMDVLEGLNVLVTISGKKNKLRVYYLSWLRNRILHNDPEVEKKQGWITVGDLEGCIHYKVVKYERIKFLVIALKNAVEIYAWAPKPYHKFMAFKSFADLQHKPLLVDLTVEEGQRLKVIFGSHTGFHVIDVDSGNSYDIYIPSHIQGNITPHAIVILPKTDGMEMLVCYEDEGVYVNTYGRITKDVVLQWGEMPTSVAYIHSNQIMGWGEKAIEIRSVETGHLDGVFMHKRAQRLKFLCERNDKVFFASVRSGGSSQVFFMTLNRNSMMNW

How the values were obtained:
[1] = molecular target: Serine/threonine-protein kinase PLK1 (Homo sapiens) (UniProt P53350); assay: Inhibition of PLK1 (unknown origin) at 1 uM by SelectScreen assay relative to control
[2] = molecular target: Platelet-derived growth factor receptor alpha (Homo sapiens) (UniProt P16234); assay: Inhibition of PDGFR-alpha (unknown origin) at 1 uM by SelectScreen assay relative to control
[3] = molecular target: Serine/threonine-protein kinase Chk2 (Homo sapiens) (UniProt O96017); assay: Inhibition of CHK2 (unknown origin) at 1 uM by SelectScreen assay relative to control
[4] = molecular target: Inhibitor of nuclear factor kappa-B kinase subunit beta (Homo sapiens) (UniProt O14920); assay: Inhibition of IKK-beta (unknown origin) at 1 uM by SelectScreen assay relative to control
[5] = molecular target: Serine/threonine-protein kinase VRK2 (Homo sapiens) (UniProt Q86Y07); assay: Inhibition of VRK2 (unknown origin) at 1 uM by SelectScreen assay relative to control
[6] = molecular target: Tyrosine-protein kinase ABL1 (Homo sapiens) (UniProt P00519); assay: Inhibition of ABL1 (unknown origin) at 1 uM by SelectScreen assay relative to control
[7] = molecular target: Tyrosine-protein kinase CSK (Homo sapiens) (UniProt P41240); assay: Inhibition of CSK (unknown origin) at 1 uM by SelectScreen assay relative to control
[8] = molecular target: Serine/threonine-protein kinase PLK4 (Homo sapiens) (UniProt O00444); assay: Inhibition of PLK4 (unknown origin) at 1 uM by SelectScreen assay relative to control
[9] = molecular target: Tyrosine-protein kinase SYK (Homo sapiens) (UniProt P43405); assay: Inhibition of SYK (unknown origin) at 1 uM by SelectScreen assay relative to control
[10] = molecular target: RAC-alpha serine/threonine-protein kinase (Homo sapiens) (UniProt P31749); assay: Inhibition of PKB-alpha (unknown origin) at 1 uM by SelectScreen assay relative to control
[11] = molecular target: Rho-associated protein kinase 1 (Homo sapiens) (UniProt Q13464); assay: Inhibition of ROCK1 (unknown origin) at 1 uM by SelectScreen assay relative to control
[12] = molecular target: Tyrosine-protein kinase JAK1 (Homo sapiens) (UniProt P23458); assay: Inhibition of JAK1 (unknown origin) at 1 uM by SelectScreen assay relative to control
[13] = molecular target: Tyrosine-protein kinase Blk (Homo sapiens) (UniProt P51451); assay: Inhibition of BLK (unknown origin) at 1 uM by SelectScreen assay relative to control
[14] = molecular target: Leucine-rich repeat serine/threonine-protein kinase 2 (Homo sapiens) (UniProt Q5S007); assay: Inhibition of LRRK2 (unknown origin) at 1 uM by SelectScreen assay relative to control
[15] = molecular target: Serine/threonine-protein kinase pim-1 (Homo sapiens) (UniProt P11309); assay: Inhibition of PIM1 (unknown origin) at 1 uM by SelectScreen assay relative to control
[16] = molecular target: Serine/threonine-protein kinase PAK 4 (Homo sapiens) (UniProt O96013); assay: Inhibition of PAK4 (unknown origin) at 1 uM by SelectScreen assay relative to control
[17] = molecular target: Epidermal growth factor receptor (Homo sapiens) (UniProt P00533); assay: Inhibition of EGFR (unknown origin) at 1 uM by SelectScreen assay relative to control
[18] = molecular target: Tyrosine-protein kinase Fyn (Homo sapiens) (UniProt P06241); assay: Inhibition of FYN (unknown origin) at 1 uM by SelectScreen assay relative to control
[19] = molecular target: Angiopoietin-1 receptor (Homo sapiens) (UniProt Q02763); assay: Inhibition of Tie2 (unknown origin) at 1 uM by SelectScreen assay relative to control
[20] = molecular target: Serine/threonine-protein kinase TBK1 (Homo sapiens) (UniProt Q9UHD2); assay: Inhibition of TBK1 (unknown origin) at 1 uM by SelectScreen assay relative to control
[21] = molecular target: Serine/threonine-protein kinase mTOR (Homo sapiens) (UniProt P42345); assay: Inhibition of mTOR (unknown origin) at 1 uM by SelectScreen assay relative to control
[22] = molecular target: Dual specificity protein kinase CLK2 (Homo sapiens) (UniProt P49760); assay: Inhibition of CLK2 (unknown origin) at 1 uM by SelectScreen assay relative to control
[23] = molecular target: Tyrosine-protein kinase receptor UFO (Homo sapiens) (UniProt P30530); assay: Inhibition of AXL (unknown origin) at 1 uM by SelectScreen assay relative to control
[24] = molecular target: Aurora kinase A (Homo sapiens) (UniProt O14965); assay: Inhibition of Aurora A (unknown origin) at 1 uM by SelectScreen assay relative to control
[25] = molecular target: Serine/threonine-protein kinase B-raf (Homo sapiens) (UniProt P15056); assay: Inhibition of BRAF (unknown origin) at 1 uM by SelectScreen assay relative to control
[26] = molecular target: Cyclin-dependent kinase 5 (Homo sapiens) (UniProt Q00535); assay: Inhibition of CDK5 (unknown origin) at 1 uM by SelectScreen assay relative to control
[27] = molecular target: Serine/threonine-protein kinase/endoribonuclease IRE2 (Homo sapiens) (UniProt Q76MJ5); assay: Inhibition of ERN2 (unknown origin) at 1 uM by SelectScreen assay relative to control
[28] = molecular target: Tyrosine-protein kinase BTK (Homo sapiens) (UniProt Q06187); assay: Inhibition of BTK (unknown origin) at 1 uM by SelectScreen assay relative to control
[29] = molecular target: TRAF2 and NCK-interacting protein kinase (Homo sapiens) (UniProt Q9UKE5); assay: Inhibition of TNIK (unknown origin) at 1 uM by SelectScreen assay relative to control
[30] = molecular target: Receptor-type tyrosine-protein kinase FLT3 (Homo sapiens) (UniProt P36888); assay: Inhibition of FLT3 (unknown origin) at 1 uM by SelectScreen assay relative to control
[31] = molecular target: Serine/threonine-protein kinase SIK1 (Homo sapiens) (UniProt P57059); assay: Inhibition of SIK1 (unknown origin) at 1 uM by SelectScreen assay relative to control
[32] = molecular target: Mitogen-activated protein kinase 3 (Homo sapiens) (UniProt P27361); assay: Inhibition of ERK1 (unknown origin) at 1 uM by SelectScreen assay relative to control
[33] = molecular target: Wee1-like protein kinase (Homo sapiens) (UniProt P30291); assay: Inhibition of WEE1 (unknown origin) at 1 uM by SelectScreen assay relative to control
[34] = molecular target: ALK tyrosine kinase receptor (Homo sapiens) (UniProt Q9UM73); assay: Inhibition of ALK (unknown origin) at 1 uM by SelectScreen assay relative to control

inhibition [1]: 12% | inhibition [2]: -1% | inhibition [3]: 6% | inhibition [4]: 11% | inhibition [5]: 33% | inhibition [6]: 37% | inhibition [7]: 19% | inhibition [8]: 98% | inhibition [9]: 20% | inhibition [10]: 6% | inhibition [11]: 52% | inhibition [12]: 98% | inhibition [13]: 78% | inhibition [14]: 72% | inhibition [15]: 5% | inhibition [16]: 17% | inhibition [17]: 3% | inhibition [18]: 70% | inhibition [19]: 49% | inhibition [20]: 9% | inhibition [21]: 3% | inhibition [22]: 64% | inhibition [23]: 79% | inhibition [24]: 78% | inhibition [25]: 6% | inhibition [26]: 11% | inhibition [27]: 6% | inhibition [28]: 79% | inhibition [29]: 53% | inhibition [30]: 78% | inhibition [31]: 20% | inhibition [32]: 6% | inhibition [33]: 8% | inhibition [34]: 101%
SMILES: C[C@@H](Nc1ccc2[nH]nc(-n3cncn3)c2c1)c1cc(F)ccc1OCC(F)F
